## Permeability data for macrocyclic peptides

Collected by the curators of CycPeptMPDB (Li et al. 2023) from Furukawa et al. 2016, doi:10.1021/acs.jmedchem.6b01246.

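The data file gives no further conditions (lipid, pH, time, direction or concentration), and values from different papers need not be comparable. Other peptides of the study may be missing here. Peptides that the database sets to -10, its floor, are left out.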

PAMPA is the parallel artificial membrane permeability assay, which has no cells and reads passive diffusion. Permeability is in 10^-6 cm/s, converted from the database's log10 values; higher is more permeable.

| SMILES | PAMPA (10^-6 cm/s) |
|---|---|
| CCCC[C@@H]1NC(=O)[C@H](CC(C)C)N(C)C(=O)CN(CC2CCOCC2)C(=O)[C@H](Cc2ccccc2)NC(=O)CN(CC)C(=O)[C@@H]2CCCN2C1=O | 3.4 |
| CCCC[C@@H]1NC(=O)[C@@H](CC(C)C)NC(=O)CN(CC2CCOCC2)C(=O)[C@H](Cc2ccccc2)NC(=O)CN(Cc2ccc3c(c2)OCO3)C(=O)[C@H]2CCCN2C1=O | 8.7 |
| CCCC[C@@H]1NC(=O)[C@H](CC(C)C)N(C)C(=O)CN(CC2CCCCC2)C(=O)[C@H](Cc2ccccc2)NC(=O)CN(CCCOC(C)C)C(=O)[C@H]2CCCN2C1=O | 0.78 |
| CCCC[C@@H]1NC(=O)[C@H](CC(C)C)N(C)C(=O)CN(CC2CCCCC2)C(=O)[C@H](C)NC(=O)CN(CCCOC(C)C)C(=O)[C@H]2CCCN2C1=O | 13 |
| CCCCCN1CC(=O)N(C)[C@@H](CC(C)C)C(=O)N[C@@H](CCCC)C(=O)N2CCC[C@@H]2C(=O)N(CCCOC(C)C)CC(=O)N[C@H](Cc2ccccc2)C1=O | 6.9 |
| CCCC[C@@H]1NC(=O)[C@H](CC(C)C)NC(=O)CN(CC2CCCCC2)C(=O)[C@H](Cc2ccccc2)NC(=O)CN(Cc2ccc3c(c2)OCO3)C(=O)[C@@H]2CCCN2C1=O | 3.9 |
| CCCC[C@@H]1NC(=O)[C@@H](CC(C)C)NC(=O)CN(CC2CCCCC2)C(=O)[C@H](Cc2ccccc2)NC(=O)CN(CC)C(=O)[C@H]2CCCN2C1=O | 17 |
| CCCC[C@@H]1NC(=O)[C@H](CC(C)C)NC(=O)CN(CC2CCOCC2)C(=O)[C@H](Cc2ccccc2)NC(=O)CN(CCCOC(C)C)C(=O)[C@H]2CCCN2C1=O | 3.6 |
| CCCC[C@@H]1NC(=O)[C@@H](CC(C)C)NC(=O)CN(CC2CCCCC2)C(=O)[C@@H](Cc2ccccc2)NC(=O)CN(CC)C(=O)[C@H]2CCCN2C1=O | 9.3 |
| CCCCCN1CC(=O)N(C)[C@@H](CC(C)C)C(=O)N[C@@H](CCCC)C(=O)N2CCC[C@@H]2C(=O)N(Cc2ccc3c(c2)OCO3)CC(=O)N[C@@H](C)C1=O | 14 |
| CCCC[C@@H]1NC(=O)[C@H](CC(C)C)N(C)C(=O)CN(CC2CCCCC2)C(=O)[C@@H](Cc2ccccc2)NC(=O)CN(Cc2ccc3c(c2)OCO3)C(=O)[C@@H]2CCCN2C1=O | 1.1 |
| CCCCCN1CC(=O)N[C@H](CC(C)C)C(=O)N[C@@H](CCCC)C(=O)N2CCC[C@H]2C(=O)N(CCCOC(C)C)CC(=O)N[C@H](Cc2ccccc2)C1=O | 12 |
| CCCC[C@@H]1NC(=O)[C@H](CC(C)C)N(C)C(=O)CN(CC2CCOCC2)C(=O)[C@H](C)NC(=O)CN(Cc2ccc3c(c2)OCO3)C(=O)[C@@H]2CCCN2C1=O | 1.2 |
| CCCCCN1CC(=O)N[C@H](CC(C)C)C(=O)N[C@@H](CCCC)C(=O)N2CCC[C@@H]2C(=O)N(CCCOC(C)C)CC(=O)N[C@H](C)C1=O | 1.5 |
| CCCCCN1CC(=O)N(C)[C@@H](CC(C)C)C(=O)N[C@@H](CCCC)C(=O)N2CCC[C@H]2C(=O)N(Cc2ccc3c(c2)OCO3)CC(=O)N[C@H](C)C1=O | 7.2 |
| CCCCCN1CC(=O)N(C)[C@@H](CC(C)C)C(=O)N[C@@H](CCCC)C(=O)N2CCC[C@@H]2C(=O)N(CC)CC(=O)N[C@@H](Cc2ccccc2)C1=O | 9.1 |
| CCCC[C@@H]1NC(=O)[C@H](CC(C)C)N(C)C(=O)CN(CC2CCOCC2)C(=O)[C@@H](C)NC(=O)CN(CC)C(=O)[C@@H]2CCCN2C1=O | 0.028 |
| CCCC[C@@H]1NC(=O)[C@@H](CC(C)C)N(C)C(=O)CN(CC2CCOCC2)C(=O)[C@H](C)NC(=O)CN(CC)C(=O)[C@H]2CCCN2C1=O | 0.25 |
| CCCCCN1CC(=O)N[C@@H](CC(C)C)C(=O)N[C@@H](CCCC)C(=O)N2CCC[C@@H]2C(=O)N(CC)CC(=O)N[C@@H](Cc2ccccc2)C1=O | 7.4 |
| CCCCCN1CC(=O)N(C)[C@@H](CC(C)C)C(=O)N[C@@H](CCCC)C(=O)N2CCC[C@H]2C(=O)N(CC)CC(=O)N[C@@H](C)C1=O | 2.9 |
| CCCC[C@@H]1NC(=O)[C@H](CC(C)C)NC(=O)CN(CC2CCCCC2)C(=O)[C@@H](Cc2ccccc2)NC(=O)CN(CC)C(=O)[C@@H]2CCCN2C1=O | 5.2 |

3 of these entries, quoted again:

{"smiles": "CCCC[C@@H]1NC(=O)[C@H](CC(C)C)N(C)C(=O)CN(CC2CCCCC2)C(=O)[C@H](C)NC(=O)CN(CCCOC(C)C)C(=O)[C@H]2CCCN2C1=O", "PAMPA (10^-6 cm/s)": "13"}
{"smiles": "CCCC[C@@H]1NC(=O)[C@@H](CC(C)C)NC(=O)CN(CC2CCCCC2)C(=O)[C@@H](Cc2ccccc2)NC(=O)CN(CC)C(=O)[C@H]2CCCN2C1=O", "PAMPA (10^-6 cm/s)": "9.3"}
{"smiles": "CCCCCN1CC(=O)N(C)[C@@H](CC(C)C)C(=O)N[C@@H](CCCC)C(=O)N2CCC[C@H]2C(=O)N(CC)CC(=O)N[C@@H](C)C1=O", "PAMPA (10^-6 cm/s)": "2.9"}